{"source": "the supplement of paper PMC12669032", "note": "What follows is the remainder of the data, with few or none of the hits.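 How the source made its calls: active = AUC reduced over 20% with Padj below 0.05 in at least 2 of 3 replicates; inactive = otherwise.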", "data": [{"tested_on": "Collinsella aerofaciens", "experiment": "growth AUC relative to DMSO control (median of replicates) (fraction); higher = more growth (less inhibition), active = hit call of the paper", "conditions": "20 µM; 24 h", "experimental": "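Anaerobic monocultures of 22 human gut bacterial strains grown at 37 °C in mGAM with 20 µM compound (1% DMSO), starting OD600 0.05. OD600 read hourly for 24 h. Value is the median of 3 biological replicates. Hit: >20% AUC reduction and Padj<0.05 in at least 2 of 3 replicates.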", "values": [{"smiles": "CCOc1nc(C(Cl)(Cl)Cl)ns1", "growth AUC": "inactive: 0.967"}, {"smiles": "CCOP(=S)(OCC)Oc1ncn(-c2ccccc2)n1", "growth AUC": "inactive: 0.993"}]}]}
